Source: article PMC3441713, “Citrullination of Histone H3 Interferes with HP1-Mediated Transcriptional Repression” (PLoS Genetics, 2012)

Chains of the proteins cited; added tags and fusions are not shown.
UniProt P45973, whole entry: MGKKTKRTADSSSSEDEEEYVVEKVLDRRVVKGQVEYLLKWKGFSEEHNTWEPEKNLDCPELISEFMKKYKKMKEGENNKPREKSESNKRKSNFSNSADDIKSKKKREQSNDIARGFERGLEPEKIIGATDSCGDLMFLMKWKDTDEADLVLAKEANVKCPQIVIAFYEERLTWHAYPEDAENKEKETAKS

Columns and labels:
GST-HP1α [1] = target: T1, GST-HP1α (Homo sapiens, UniProt P45973); test: Dot blot: binding of recombinant GST-HP1α to spotted H3 peptides; conditions: 1, 0.2 and 0.04 µg peptide on membrane, anti-GST antibodies
GST-HP1α [2] = target: T1, GST-HP1α; test: Surface plasmon resonance of H3 peptides on immobilized GST-HP1α; assay type: binding; conditions: SPR, from Kd
GST-HP1α [3] = target: T1, GST-HP1α; test: Overlay assay: competition of H3 peptides with cellular sites for GST-HP1α binding; conditions: 1 µg peptide; fixed permeabilized MCF7 cells
GST-HP1α [4] = target: T1, GST-HP1α; test: SPR; GST-HP1α covalently coupled to a CM5 chip (3500, 6500 and 15000 RU), GST reference surface; peptides injected; Biacore 2000, 25°C, PBS; steady-state fit

ARTKQTA (cit)(Kme3)STGGKAPRC [H3cit8K9me3]
binding of GST-HP1α to spotted H3 peptide (GST-HP1α [1]; listed as H3Cit8K9me3): does not bind | binding of GST-HP1α to spotted H3 peptide (GST-HP1α [1]; listed as cit8K9me3): but not a peptide with a double cit8K9me3 modification | decrease in the affinity of HP1α for H3cit8K9me3 compared to H3R8K9me3 (GST-HP1α [2]): more than 200 fold | effect of citrullination of H3R8 on HP1α binding compared with its methylation (GST-HP1α [2]): 10 fold | competition with cellular sites for GST-HP1α binding (GST-HP1α [3]): did not

H3cit8K9: peptide ARTKQTARKSTGGKAPRC with cit8 modification (citrulline at 8 (in place of R8))
competition with cellular sites for GST-HP1α binding (GST-HP1α [3]): failed to compete

ARTKQTARKSTGGKAPRC [H3R8K9]
competition with cellular sites for GST-HP1α binding (GST-HP1α [3]): failed to compete

histone H3 peptide … with cit8K9me3
Kd (GST-HP1α [4]): 313 µM
